According to patent US20180313853A1:

Target: all-L-Aβ40WT (amyloid beta 40, all-L enantiomer) (human)
Test: cell-based or functional assay

Thioflavin T (ThT) fluorescence: start of fibril formation: 0 min | Thioflavin T (ThT) fluorescence: time to maximum fluorescence for fibril formation: 200 min
Substance: all-D-Aβ40WT (amyloid beta 40, all-D enantiomer) (peptide)
